What all share (experiment): Biochemical kinase profiling (33PanQinase radiometric assay)
The target in one assay is PDGFRA (Homo sapiens, UniProt P16234). The settings on record: read-out: PDGFRA IC50; ATP at apparent Km.
In a further assay the target is SRC (Homo sapiens, UniProt P12931). The note with it: read-out: SRC IC50; ATP at apparent Km.
The target in the next assay is TGFBR2 (Homo sapiens, UniProt P37173). The settings on record: read-out: TGFBR2 IC50; ATP at apparent Km.
For the next assay, the target named is EGFR (Homo sapiens, UniProt P00533). The note with it: read-out: EGFR IC50; ATP at apparent Km.
The next assay addresses T1, TGFBR1 (Homo sapiens, UniProt P36897).
T1 sequence (P36897 34-503): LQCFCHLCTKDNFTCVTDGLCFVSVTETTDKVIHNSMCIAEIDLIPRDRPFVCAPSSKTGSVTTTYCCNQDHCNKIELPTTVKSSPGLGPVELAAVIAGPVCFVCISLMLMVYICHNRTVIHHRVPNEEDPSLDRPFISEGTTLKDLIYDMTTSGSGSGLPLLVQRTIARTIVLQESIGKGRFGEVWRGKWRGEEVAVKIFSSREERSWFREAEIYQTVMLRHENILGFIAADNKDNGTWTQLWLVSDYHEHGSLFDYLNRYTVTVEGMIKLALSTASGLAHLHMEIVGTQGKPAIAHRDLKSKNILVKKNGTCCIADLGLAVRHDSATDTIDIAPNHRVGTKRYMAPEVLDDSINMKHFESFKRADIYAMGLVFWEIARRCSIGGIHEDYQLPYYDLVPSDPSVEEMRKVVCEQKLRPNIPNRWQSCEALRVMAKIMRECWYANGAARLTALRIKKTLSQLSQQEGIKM
The settings on record: read-out: TGFBR1 IC50; ATP at apparent Km.

The chains behind the UniProt entries cited, without tags or fusion partners. Where a name states a change or a piece, a line headed by the entry shows the natural chain unless it says otherwise. Residues count along the entry.
UniProt P16234, 24-1089: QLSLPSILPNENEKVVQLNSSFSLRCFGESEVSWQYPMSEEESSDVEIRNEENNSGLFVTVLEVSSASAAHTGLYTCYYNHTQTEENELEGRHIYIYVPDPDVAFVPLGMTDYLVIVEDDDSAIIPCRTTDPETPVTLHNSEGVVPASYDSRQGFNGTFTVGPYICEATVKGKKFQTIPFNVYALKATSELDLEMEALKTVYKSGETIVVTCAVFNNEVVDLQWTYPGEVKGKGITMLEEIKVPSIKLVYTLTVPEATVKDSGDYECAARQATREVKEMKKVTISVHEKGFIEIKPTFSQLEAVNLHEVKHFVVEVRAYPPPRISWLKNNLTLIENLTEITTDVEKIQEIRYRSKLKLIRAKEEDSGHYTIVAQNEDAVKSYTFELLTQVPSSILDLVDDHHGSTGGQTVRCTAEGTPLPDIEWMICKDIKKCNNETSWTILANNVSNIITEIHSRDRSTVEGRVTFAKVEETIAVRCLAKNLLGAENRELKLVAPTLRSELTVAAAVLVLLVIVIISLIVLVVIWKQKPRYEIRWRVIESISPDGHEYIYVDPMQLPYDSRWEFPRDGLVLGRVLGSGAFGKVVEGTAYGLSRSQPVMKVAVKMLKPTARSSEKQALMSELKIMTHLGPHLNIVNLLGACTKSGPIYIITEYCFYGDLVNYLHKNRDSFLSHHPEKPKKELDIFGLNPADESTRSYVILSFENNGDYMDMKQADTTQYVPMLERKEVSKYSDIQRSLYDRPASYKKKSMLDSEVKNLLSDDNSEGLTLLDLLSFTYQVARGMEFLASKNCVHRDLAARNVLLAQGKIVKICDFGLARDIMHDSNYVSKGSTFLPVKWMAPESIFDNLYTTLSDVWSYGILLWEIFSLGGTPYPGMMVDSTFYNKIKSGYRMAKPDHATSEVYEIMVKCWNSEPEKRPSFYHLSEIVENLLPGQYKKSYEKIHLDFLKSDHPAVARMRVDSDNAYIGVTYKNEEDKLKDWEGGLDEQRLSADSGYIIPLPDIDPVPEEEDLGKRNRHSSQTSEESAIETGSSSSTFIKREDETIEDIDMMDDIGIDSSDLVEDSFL
UniProt P37173, 23-567: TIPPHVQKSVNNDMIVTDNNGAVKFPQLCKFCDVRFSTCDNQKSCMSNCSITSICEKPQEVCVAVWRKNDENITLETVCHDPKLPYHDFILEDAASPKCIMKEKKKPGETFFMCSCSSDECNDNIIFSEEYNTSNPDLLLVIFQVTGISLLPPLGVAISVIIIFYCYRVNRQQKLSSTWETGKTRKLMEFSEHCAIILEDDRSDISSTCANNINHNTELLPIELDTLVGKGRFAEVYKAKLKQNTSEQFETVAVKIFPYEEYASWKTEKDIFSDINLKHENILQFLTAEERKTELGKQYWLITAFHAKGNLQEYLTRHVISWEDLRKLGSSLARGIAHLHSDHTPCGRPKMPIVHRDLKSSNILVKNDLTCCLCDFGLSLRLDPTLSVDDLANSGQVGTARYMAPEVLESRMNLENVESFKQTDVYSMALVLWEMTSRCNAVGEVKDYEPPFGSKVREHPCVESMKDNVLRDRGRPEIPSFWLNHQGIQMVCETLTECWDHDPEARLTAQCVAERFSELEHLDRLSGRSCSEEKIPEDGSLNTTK
UniProt O75116: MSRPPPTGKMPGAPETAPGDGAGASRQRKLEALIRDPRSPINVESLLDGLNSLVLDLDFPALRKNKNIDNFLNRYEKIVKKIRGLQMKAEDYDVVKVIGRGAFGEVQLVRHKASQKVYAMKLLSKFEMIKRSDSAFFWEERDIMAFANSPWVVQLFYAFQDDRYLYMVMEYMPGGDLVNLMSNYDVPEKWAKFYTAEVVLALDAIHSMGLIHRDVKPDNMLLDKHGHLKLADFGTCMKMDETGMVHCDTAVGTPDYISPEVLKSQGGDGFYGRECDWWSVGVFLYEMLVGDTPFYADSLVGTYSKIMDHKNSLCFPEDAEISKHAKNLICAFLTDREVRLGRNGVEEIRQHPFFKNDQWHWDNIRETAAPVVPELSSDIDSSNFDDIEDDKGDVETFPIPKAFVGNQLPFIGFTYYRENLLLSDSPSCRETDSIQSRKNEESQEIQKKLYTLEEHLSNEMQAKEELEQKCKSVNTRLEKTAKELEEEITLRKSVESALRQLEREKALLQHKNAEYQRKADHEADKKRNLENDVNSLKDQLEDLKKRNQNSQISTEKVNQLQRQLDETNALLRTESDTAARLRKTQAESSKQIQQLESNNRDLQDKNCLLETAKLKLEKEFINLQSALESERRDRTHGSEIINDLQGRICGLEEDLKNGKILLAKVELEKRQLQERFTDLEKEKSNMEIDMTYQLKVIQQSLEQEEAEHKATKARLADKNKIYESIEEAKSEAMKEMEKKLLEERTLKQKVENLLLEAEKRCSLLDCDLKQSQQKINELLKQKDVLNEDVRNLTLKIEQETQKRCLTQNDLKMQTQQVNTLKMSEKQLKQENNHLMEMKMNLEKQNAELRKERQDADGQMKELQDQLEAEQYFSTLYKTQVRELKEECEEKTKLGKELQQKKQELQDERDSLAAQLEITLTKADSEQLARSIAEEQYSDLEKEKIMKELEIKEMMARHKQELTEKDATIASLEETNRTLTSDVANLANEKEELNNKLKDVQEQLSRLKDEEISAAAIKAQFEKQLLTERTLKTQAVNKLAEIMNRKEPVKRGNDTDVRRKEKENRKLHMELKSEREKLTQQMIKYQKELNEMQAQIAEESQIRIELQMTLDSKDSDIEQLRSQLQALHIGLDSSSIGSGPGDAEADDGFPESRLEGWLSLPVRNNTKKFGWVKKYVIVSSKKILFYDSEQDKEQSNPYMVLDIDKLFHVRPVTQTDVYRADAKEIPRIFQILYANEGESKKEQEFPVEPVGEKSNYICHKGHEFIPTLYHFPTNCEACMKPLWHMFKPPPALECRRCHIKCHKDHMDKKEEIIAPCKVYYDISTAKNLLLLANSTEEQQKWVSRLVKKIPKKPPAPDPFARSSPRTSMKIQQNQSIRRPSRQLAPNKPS
UniProt P09619, 33-1106: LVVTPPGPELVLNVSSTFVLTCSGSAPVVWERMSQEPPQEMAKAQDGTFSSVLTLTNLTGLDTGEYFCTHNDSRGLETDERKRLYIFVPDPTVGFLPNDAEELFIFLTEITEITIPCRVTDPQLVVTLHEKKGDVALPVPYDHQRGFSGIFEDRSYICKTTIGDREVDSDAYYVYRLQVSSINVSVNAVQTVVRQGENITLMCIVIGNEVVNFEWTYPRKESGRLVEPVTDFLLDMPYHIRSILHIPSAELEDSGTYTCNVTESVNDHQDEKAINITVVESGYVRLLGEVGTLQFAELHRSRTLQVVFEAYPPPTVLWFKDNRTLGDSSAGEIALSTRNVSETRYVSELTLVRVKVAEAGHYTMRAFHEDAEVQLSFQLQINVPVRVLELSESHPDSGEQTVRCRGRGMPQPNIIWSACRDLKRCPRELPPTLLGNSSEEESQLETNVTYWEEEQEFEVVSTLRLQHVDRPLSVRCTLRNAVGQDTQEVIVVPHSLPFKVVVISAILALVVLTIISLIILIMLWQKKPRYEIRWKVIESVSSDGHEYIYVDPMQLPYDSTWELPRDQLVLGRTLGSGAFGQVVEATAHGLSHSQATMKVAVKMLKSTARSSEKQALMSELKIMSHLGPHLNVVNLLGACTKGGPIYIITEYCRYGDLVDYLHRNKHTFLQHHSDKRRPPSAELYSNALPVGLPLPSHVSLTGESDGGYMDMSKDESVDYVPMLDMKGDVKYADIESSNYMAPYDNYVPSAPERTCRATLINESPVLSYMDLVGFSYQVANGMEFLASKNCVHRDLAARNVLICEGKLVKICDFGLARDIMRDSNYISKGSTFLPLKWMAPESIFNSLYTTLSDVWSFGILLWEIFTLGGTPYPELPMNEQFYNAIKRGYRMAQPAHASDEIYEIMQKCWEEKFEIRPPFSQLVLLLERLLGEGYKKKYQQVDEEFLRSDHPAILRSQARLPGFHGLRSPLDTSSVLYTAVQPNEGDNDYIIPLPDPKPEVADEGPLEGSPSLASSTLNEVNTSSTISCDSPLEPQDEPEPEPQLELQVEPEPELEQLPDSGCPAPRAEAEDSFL

Another assay concerns the target ROCK2 (Homo sapiens, UniProt O75116). The settings on record: read-out: ROCK2 IC50; ATP at apparent Km.
The target of the next assay is PDGFRB (Homo sapiens, UniProt P09619). The settings on record: read-out: PDGFRB IC50; ATP at apparent Km.

Where only a bound is given, the exact number is not on record here.

One substance from paper PMC5041959, “A high-content EMT screen identifies multiple receptor tyrosine kinase inhibitors with activity on TGFβ receptor” (Oncotarget, 2016) can be followed below.

Regarding AZD4547, the IC50 at PDGFRA is more than 10 µM; at SRC, 0.76 µM; on TGFBR2 it was 8.77 µM; at EGFR, more than 10 µM; on TGFBR1 it was more than 10 µM; on ROCK2, more than 10 µM. Moreover, the IC50 on PDGFRB amounted to 1.01 µM.
